Literature values as cited in patent US8653307B2, “Liphagal enantiomers and their derivatives and precursors, and enantioselective methods of making the same” (California Institute of Technology, priority 2011, dated 2014).

Protein sequences, listed by entry. Tags and fused reporters are not part of them.
UniProt P42336, whole entry: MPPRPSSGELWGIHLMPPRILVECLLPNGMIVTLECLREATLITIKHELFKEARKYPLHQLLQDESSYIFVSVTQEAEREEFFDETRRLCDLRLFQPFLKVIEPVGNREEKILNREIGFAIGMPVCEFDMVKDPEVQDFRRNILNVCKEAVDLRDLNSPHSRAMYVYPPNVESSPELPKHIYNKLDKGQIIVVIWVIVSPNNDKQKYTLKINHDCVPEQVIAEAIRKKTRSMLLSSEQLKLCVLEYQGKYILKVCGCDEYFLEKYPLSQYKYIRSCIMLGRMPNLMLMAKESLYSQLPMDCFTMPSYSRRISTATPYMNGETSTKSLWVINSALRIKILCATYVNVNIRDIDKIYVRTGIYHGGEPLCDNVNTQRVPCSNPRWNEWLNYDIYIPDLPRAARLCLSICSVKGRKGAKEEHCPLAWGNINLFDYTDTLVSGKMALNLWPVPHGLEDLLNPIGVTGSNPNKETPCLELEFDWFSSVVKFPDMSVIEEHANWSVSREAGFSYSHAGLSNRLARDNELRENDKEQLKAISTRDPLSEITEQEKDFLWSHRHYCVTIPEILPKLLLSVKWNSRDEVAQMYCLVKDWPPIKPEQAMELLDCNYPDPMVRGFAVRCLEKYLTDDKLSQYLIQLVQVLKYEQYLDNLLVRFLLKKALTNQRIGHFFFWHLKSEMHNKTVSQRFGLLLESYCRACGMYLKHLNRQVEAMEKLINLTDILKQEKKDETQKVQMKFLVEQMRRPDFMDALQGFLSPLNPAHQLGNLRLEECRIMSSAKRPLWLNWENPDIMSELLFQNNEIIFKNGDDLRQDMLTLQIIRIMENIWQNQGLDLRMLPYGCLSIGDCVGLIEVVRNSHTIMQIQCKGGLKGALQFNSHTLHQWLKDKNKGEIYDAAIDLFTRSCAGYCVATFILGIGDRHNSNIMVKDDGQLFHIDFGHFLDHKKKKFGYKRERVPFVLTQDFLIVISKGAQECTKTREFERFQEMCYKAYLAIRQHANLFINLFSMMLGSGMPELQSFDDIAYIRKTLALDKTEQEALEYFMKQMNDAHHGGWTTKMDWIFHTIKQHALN

Target: PI3Kα (Homo sapiens, UniProt P42336)

Q: For liphagal, which “potency against PI3Kα compared to any other PI3K” value is on record?
A: Its value is “at least 10 fold”.

Q: What about the IC50 (read-out: IC50 against PI3Kα) of the same substance?
A: Its IC50 is 100 nM.
